By Ki is commonly meant a measure of affinity in units of concentration, obtained from inhibition or displacement.

Sequences of proteins named here, by UniProt entry; tags and fusion partners are left off.
UniProt P31652, whole entry: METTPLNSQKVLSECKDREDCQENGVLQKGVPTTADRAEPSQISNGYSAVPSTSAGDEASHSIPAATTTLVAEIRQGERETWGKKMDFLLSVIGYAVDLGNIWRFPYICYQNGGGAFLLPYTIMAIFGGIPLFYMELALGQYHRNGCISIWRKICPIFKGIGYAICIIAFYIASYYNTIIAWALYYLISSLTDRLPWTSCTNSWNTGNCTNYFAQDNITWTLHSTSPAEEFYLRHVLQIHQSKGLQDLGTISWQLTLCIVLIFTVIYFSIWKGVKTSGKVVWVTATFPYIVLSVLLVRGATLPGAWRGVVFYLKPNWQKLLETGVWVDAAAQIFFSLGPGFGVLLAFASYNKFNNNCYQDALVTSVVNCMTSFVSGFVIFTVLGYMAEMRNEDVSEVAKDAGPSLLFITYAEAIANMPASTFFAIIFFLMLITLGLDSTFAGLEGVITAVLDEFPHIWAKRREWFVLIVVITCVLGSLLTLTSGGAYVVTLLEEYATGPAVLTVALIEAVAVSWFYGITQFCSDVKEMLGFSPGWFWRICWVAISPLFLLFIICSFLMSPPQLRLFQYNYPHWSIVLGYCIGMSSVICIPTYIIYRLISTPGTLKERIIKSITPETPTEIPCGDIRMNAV

The assay has as its target Sodium-dependent serotonin transporter (Rattus norvegicus, UniProt P31652).
For `N[C@H]1CC[C@@H](c2ccc(Cl)c(Cl)c2)c2ccccc21`, affinity was put at a Ki of 53.6 nM.

As for `CNCCC=C1c2ccccc2CSc2ccccc21` [CAS_1154-09-2], the Ki was 192 nM.

Molecule `CC(C)CC(N(C)C)C1(c2ccc(Cl)cc2)CCC1` (centres undefined) [CAS_106650-56-0] showed a Ki of 3130 nM.

The molecule `CNC(CC(C)C)C1(c2ccc(Cl)cc2)CCC1` (centres undefined) [DESMETHYLSIBUTRAMINE] displayed a Ki of 19.3 nM. Compared with the last molecule, the Ki is about 160-fold lower.
